Values quoted from earlier work as cited in patent US12281072B2, “Multi-aziridine compound” (priority 2020, dated 2025).

Conditions: background statement on state-of-the-art aziridines

In the case of “pentaerythritol tris[3-(1-aziridinyl)propionate [XAMA-7]”, the genotoxic profile is given as “unfavourable genotoxic profile”.
